Experimental data taken from publication PMC6823245, “Positive Modulation of Angiotensin II Type 1 Receptor–Mediated Signaling by LVV–Hemorphin-7” (Frontiers in Pharmacology, 2019).

Columns and labels:
[1] = target: AT1R-RlucII (angiotensin II type 1 receptor fused to Renilla luciferase) (human) (UniProt P30556)
[2] = target: untagged AT1R (AT1R-WT) (human) (UniProt P30556)
[3] = target: AT1R-RlucII (angiotensin II type 1 receptor fused to Renilla luciferase) (human) (UniProt P30556); remark: listed apart in the source

angiotensin II (AngII) (peptide)
ERK1/2 phosphorylation (folds over untreated cells), cells coexpressing AT1R-Rluc and Venus-Gαq, 10 nM AngII [1]: 3.7 folds | Log EC50 of AngII, IP1 production in cells expressing AT1R-WT, control (log (concentration unit not given)) [2]: -8.15 | Log EC50 of AngII, IP1 production in cells expressing AT1R-WT, with 10 µM LVV–hemorphin-7 (log (concentration unit not given)) [2]: -9.55 | Log EC50 of AngII, BRET between AT1R-Rluc and Venus-Gαq, cells pretreated with 10 µM LVV–hemorphin-7 (log (concentration unit not given)) [3]: -8.78 | Log EC50 of AngII, BRET between AT1R-Rluc and Venus-Gαq, control (log (concentration unit not given)) [3]: -7.68 | Log EC50 of AngII, BRET between AT1R-Rluc and yPET–β-arrestin 2, cells pretreated with 10 µM LVV–hemorphin-7 (log (concentration unit not given)) [3]: -8.91 | Log EC50 of AngII, BRET between AT1R-Rluc and yPET–β-arrestin 2, control (log (concentration unit not given)) [3]: -7.75 | Log EC50 of AngII, IP1 production in cells coexpressing AT1R-Rluc and Venus-Gαq, control (log (concentration unit not given)) [3]: -7.57 | Log EC50 of AngII, IP1 production in cells coexpressing AT1R-Rluc and Venus-Gαq, pretreated with 10 µM LVV–hemorphin-7 (log (concentration unit not given)) [3]: -8.93
